# Yeast mating assay B: variants of the scFv Ab-14

Target peptide (SARS-CoV-2 spike, HR2 region): PDVDLGDISGINAS

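The parent was found by panning a naive human phage display library on the peptide. Designed CDR sequences, proposed from the first random library and measured here. Several design methods are mixed in this list. Affinity was read by AlphaSeq, a pooled yeast mating assay with surface-displayed partners. Pairs that bind mate more often; barcode pairs of the diploids are counted by sequencing. A regression on co-assayed BCL2-family reference pairs converts the normalised counts of each replicate to an apparent Kd. Each pool was mated in six replicate cultures.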

Parent scFv Ab-14: VH joined to VL by a (GGGGS)3 linker. Changes lie in the light chain CDRs alone.
VH: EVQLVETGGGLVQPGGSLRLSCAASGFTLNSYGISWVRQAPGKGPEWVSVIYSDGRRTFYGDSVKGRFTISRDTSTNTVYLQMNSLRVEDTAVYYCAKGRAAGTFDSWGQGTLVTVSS
VL: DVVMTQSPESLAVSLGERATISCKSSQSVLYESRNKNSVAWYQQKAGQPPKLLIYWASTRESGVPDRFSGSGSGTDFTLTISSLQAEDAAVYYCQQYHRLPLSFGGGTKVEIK

Positions count from residue 1 of the parent VL; L30Y puts Y in place of L. This list holds designs with at most six substitutions. Values are apparent Kd, the geometric mean of the replicates that gave a signal; lower means stronger binding. "nd" marks a missing value. The strain was present, yet no cells mated with the target were sequenced in any replicate, which points to weak or no binding. Three control strains display no target. For all light chain designs, 4% of the pairings with them gave a signal, with a median of 430 nM and one signal in twenty below 38 nM, so weak values seen in few replicates may be background. Values of this round are not directly comparable with the first-round values of the same sequences. Of ten entries with the parent sequence, four were seen in most replicates (averages 2.2 nM to 240 nM), three in one and three in none, so single entries are noisy. The authors averaged sequences with at least three values out of six and counted those with two or fewer as poor binders.

changes,Kd,replicates with signal
L30Y+R34F+K36T+T59Y+Q96R+L100D,nd,0 of 6
S25V+W56N+A57G,630 pM,6 of 6
S25I+V29W+S33D+N35V+W56G+S58Q,2.7 nM,6 of 6
W56Y+S62E,790 nM,4 of 6
S26D+S28G+W56G+T59Q+E61I,1.3 nM,6 of 6
S25D+Y31M+S62F+Q96K,nd,0 of 6
R34Y+R99F,nd,0 of 6
S25L+S26Q+S28G+V29Y+L30W+S62V,30 nM,6 of 6
S25V+W56G+Q96N,1.7 nM,6 of 6
K24T+T59E+E61M,77 nM,6 of 6
S25L+K36P+N37W+W56N,480 pM,6 of 6
S25F+L30Q+N35T+W56N,700 pM,6 of 6
V29T+K36L+W56D,1.5 nM,6 of 6
A57G+R99D,970 nM,3 of 6
L30E+R99W,nd,0 of 6
S25V+V29H+N35M+W56N,1.9 nM,6 of 6
S25V+Q27P+V29Y+W56N,440 pM,6 of 6
S26Q+V29Q+K36F+W56H,9.3 nM,6 of 6
S26R+W56M,170 nM,6 of 6
Q27T+Y31D+E61V+Y97C+P101H,nd,0 of 6
K36N+S58E+S103V,2.6 µM,4 of 6
S25L+V29Q+W56N+T59Q+S62D,1.5 nM,6 of 6
K24H+Q27P+L30A+W56D,1.2 nM,6 of 6
K24H+S25L+Q27D+K36P+W56N,690 pM,6 of 6
S25L+L30G+E32Q+W56H+T59Q+S62D,4.5 nM,6 of 6
S25I+R34L+W56D+S62V+Q95A+Y97H,190 nM,3 of 6
S26Q+W56H+S62D+H98G,1.4 nM,6 of 6
K24H+Q27P+K36T+W56N,4.4 nM,6 of 6
L30S+K36S+N37E+Q96R+S103D,280 nM,1 of 6
S25W+N37M+W56N+A57G,2.6 nM,6 of 6
S25L+S26P+V29Q+N35M+W56N+T59Q,730 pM,6 of 6
S25L+V29W+L30D+W56N,450 pM,6 of 6
S25A,260 nM,3 of 6
Q27G+V29Q+K36S+W56N+S62L+Q96D,2.8 nM,6 of 6
S25V+V29E+L30P+W56N+T59Y+E61M,1.7 nM,6 of 6
Q27I+V29Y+W56E+T59Q,9.3 nM,6 of 6
S25L+S33Q+S38N+W56D,260 pM,6 of 6
S25L+V29N+L30G+N35M+W56N+T59Q,2.2 nM,6 of 6
S25L+S26P+Q27N+V29T+N35Q,3.1 nM,6 of 6
S25M+Y31K+W56G,1.0 nM,6 of 6
S25Q+V29W+W56N+T59Q,640 pM,6 of 6
S25T+S26Y+Q27V+V29S+W56Q+T59E,980 pM,6 of 6
S25W+W56D+E61S,600 pM,6 of 6
S25L+Q27I+V29Y+W56E+S62Q,520 pM,6 of 6
S26E+Q27K+Y31F+W56N,9.7 nM,6 of 6
S25L+V29E+W56N+Q96A,1.0 nM,6 of 6
S25D+L30Q+Y31T+W56S,8.9 nM,6 of 6
S25L+V29D+W56D+Q95Y+L102S,nd,0 of 6
S25L+S26E+V29E+W56N+T59K,570 pM,6 of 6
R99V+P101L,nd,0 of 6
K36Q+S38N+W56Q,2.5 nM,6 of 6
S25I+R34T+W56Q+E61N,910 pM,6 of 6
S25V+S26L+S33Q+W56H+S62D,720 pM,6 of 6

The 5 strongest on average among those seen in every replicate, once more:

changes,Kd,replicates with signal
S25L+S33Q+S38N+W56D,260 pM,6 of 6
S25V+Q27P+V29Y+W56N,440 pM,6 of 6
S25L+V29W+L30D+W56N,450 pM,6 of 6
S25L+K36P+N37W+W56N,480 pM,6 of 6
S25L+Q27I+V29Y+W56E+S62Q,520 pM,6 of 6

Source: Li et al. 2023 (doi:10.1038/s41467-023-39022-2), MIT Lincoln Laboratory and A-Alpha Bio; data file from the FLAb repository.